Measured values reported in ChEMBL document CHEMBL1140144 (J Med Chem, 2008).

Molecular target: Protease (Human immunodeficiency virus 1, UniProt Q9YQ12)
Assay: Inhibition of wild type HIV1 protease by enzyme inhibition

CC(C)CN(C[C@@H](O)[C@H](Cc1ccccc1)NC(=O)O[C@H]1CCOC1)S(=O)(=O)c1ccc(N)cc1
Ki: 6.4 nM
